In the experiment the target is T1, RIα-associated zinc finger (RIAZ), in vitro-translated full length protein (human, UniProt Q9HBE1 1-687, [35S]methionine labeled).
T1 construct: Translated in vitro from RIAZ cDNA in pBluescript II SK(-); The cDNA was cloned from a human fetal brain library; also called in-vitro translated RIAZ protein
T1 sequence: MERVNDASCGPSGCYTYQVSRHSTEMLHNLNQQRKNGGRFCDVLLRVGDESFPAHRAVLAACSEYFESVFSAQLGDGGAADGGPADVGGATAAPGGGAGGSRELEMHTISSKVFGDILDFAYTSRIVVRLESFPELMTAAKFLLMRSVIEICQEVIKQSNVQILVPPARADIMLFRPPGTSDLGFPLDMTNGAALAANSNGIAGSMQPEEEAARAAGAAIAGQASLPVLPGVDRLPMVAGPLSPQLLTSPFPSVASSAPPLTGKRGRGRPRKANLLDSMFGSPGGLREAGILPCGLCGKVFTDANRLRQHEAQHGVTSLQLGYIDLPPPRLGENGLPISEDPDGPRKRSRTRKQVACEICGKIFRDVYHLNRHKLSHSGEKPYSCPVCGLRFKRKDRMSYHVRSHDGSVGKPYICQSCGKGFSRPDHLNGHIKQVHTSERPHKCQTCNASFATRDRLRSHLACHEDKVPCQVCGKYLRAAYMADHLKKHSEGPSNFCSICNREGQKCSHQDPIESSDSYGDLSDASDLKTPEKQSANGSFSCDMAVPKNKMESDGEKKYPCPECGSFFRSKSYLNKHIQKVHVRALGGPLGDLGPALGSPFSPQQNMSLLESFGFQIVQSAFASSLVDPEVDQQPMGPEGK
Briefly: GST pull down of [35S]methionine labeled RIAZ, SDS-PAGE and autoradiography.

B1: GST (control) (other, UniProt P08515 1-218, looked up)
chain: MSPILGYWKIKGLVQPTRLLLEYLEEKYEEHLYERDEGDKWRNKKFELGLEFPNLPYYIDGDVKLTQSMAIIRYIADKHNMLGGCPKERAEISMLEGAVLDIRYGVSRIAYSKDFETLKVDFLSKLPEMLKMFEDRLCHKTYLNGDHVTHPDFMLYDALDVVLYMDPMCLDAFPKLVCFKKRIEAIPQIDKYLKSSKYIAWPLQGWQATFGGGDHPPK
notes: Immobilized on glutathione resin as the negative control
As to B1, the binding result is “no binding”.
